Measured values as given in publication PMC3386426 (Journal of Medicinal Chemistry, 2012).

Tests used:
[1] = system: L1210 murine leukemia cell line; assay: cell growth inhibition in a cytotoxic assay with L1210; type: cell-based
[2] = stability in pH 7.0 phosphate buffer; type: physicochemical

| Compound | fold less potent than the parent drug 20 ([1]; L1210, relative to 20) | fold more potent than its unnatural enantiomer ([1]; L1210, relative to ent-(−)-6) [fold] | cleavage in buffer [2] |
| --- | --- | --- | --- |
| O=C1Nc2cccc3c4c(cc(c23)O1)N(C(=O)c1cc2cc(NC(=O)c3cc5ccccc5[nH]3)ccc2[nH]1)CC4CCl (single isomer, unassigned; (+)) [(+)-6, N-(2-(10-(Chloromethyl)-5-oxo-5,8,9,10-tetrahydro-4H-pyrrolo[3',2':5,6]naphtho[1,8-de][1,3]oxazine-8-carbonyl)-1H-indol-5-yl)-1H-indole-2-carboxamide] | 30–70 fold | 6 | – |
| O=C1Nc2cccc3c4c(cc(c23)O1)N(C(=O)c1cc2cc(NC(=O)c3cc5ccccc5[nH]3)ccc2[nH]1)CC4CCl (stereo not drawn) [Compound 6, N-(2-(10-(Chloromethyl)-5-oxo-5,8,9,10-tetrahydro-4H-pyrrolo[3',2':5,6]naphtho[1,8-de][1,3]oxazine-8-carbonyl)-1H-indol-5-yl)-1H-indole-2-carboxamide] | – | – | no cleavage observed |
